Source: article PMC3702509, “Label Free Fragment Screening Using Surface Plasmon Resonance as a Tool for Fragment Finding – Analyzing Parkin, a Difficult CNS Target” (PLoS ONE, 2013)

The chains behind the UniProt entries cited, without tags or fusion partners. Where a name states a change or a piece, a line headed by the entry shows the natural chain unless it says otherwise.
UniProt O60260: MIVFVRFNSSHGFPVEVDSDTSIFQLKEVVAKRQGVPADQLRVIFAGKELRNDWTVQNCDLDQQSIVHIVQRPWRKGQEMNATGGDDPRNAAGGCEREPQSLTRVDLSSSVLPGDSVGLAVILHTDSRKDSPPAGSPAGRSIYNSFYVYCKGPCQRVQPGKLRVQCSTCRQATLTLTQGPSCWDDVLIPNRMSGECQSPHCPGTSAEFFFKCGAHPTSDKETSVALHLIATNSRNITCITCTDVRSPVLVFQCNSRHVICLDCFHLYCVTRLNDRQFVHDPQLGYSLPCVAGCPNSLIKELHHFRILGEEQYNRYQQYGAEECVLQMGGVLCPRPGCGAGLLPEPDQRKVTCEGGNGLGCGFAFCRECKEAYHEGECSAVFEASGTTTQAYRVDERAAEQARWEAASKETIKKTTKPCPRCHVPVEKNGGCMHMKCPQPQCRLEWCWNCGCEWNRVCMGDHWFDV
UniProt P68036, whole entry: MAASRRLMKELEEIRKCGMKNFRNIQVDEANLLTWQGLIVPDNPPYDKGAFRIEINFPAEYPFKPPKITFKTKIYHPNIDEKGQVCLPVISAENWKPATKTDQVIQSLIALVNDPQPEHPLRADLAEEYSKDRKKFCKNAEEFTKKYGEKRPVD

Assays:
[1] = target: FL-FLAG-Parkin (full-length Parkin with N-terminal 3xFLAG and TEV site) (human) (UniProt O60260); test: SPR; non-thermal treated (RT) FL-FLAG Parkin captured on amine-coupled anti-FLAG M2 antibody on a CM5 chip at 3:1 (Parkin:Ab); protein ligands injected in dilution series; 25°C; 10 mM HEPES pH 7.4, 150 mM NaCl, 0.005% Tween-20, 4 mM reducing agent; 1:1 binding model; Biacore T100 or T200
[2] = target: FL-FLAG-Parkin (full-length Parkin with N-terminal 3xFLAG and TEV site) (human) (UniProt O60260); test: SPR; thermal treated (56°C) FL-FLAG Parkin captured on amine-coupled anti-FLAG M2 antibody on a CM5 chip; protein ligands injected; 25°C; 10 mM HEPES pH 7.4, 150 mM NaCl, 0.005% Tween-20, 4 mM reducing agent; 1:1 binding model

Substance: UbcH7, E2 ubiquitin conjugating enzyme (UBE2L3 residues 1-154) (from UniProt P68036-1 1-154) (enzyme; other documents disagree on this pair)
- Kd [1]: 4.7 µM
- dissociation time (printed beside kd) [1]: 30 s
- Kd [2]: 8.1 µM
